In PubChem BioAssay AID602393 (Broad Institute, 2012):
This is a selection; strong and weak results do not stand in their true shares. Some results for these compounds are left out of this collection, so the calls shown say nothing about other tests. Activity calls are given as the source filed them. Cut-off read from the data, not from the text of the source: active = activation above about 40%; inconclusive = no clear call, values can overlap the other calls; inactive = below that.

Assay: raisers of Bmi1 knock-in reporter signal – mouse ES cells, Bmi1 luciferase knock-in, single point, esBAF inhibitor project, primary screen (AID 602393);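 note: 0% = median of the plate's neutral control wells and 100% = double that signal; a rise in the Bmi1 reporter signal indicates esBAF inhibition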
Conditions: 24 h, at 12.5 µM, active compounds read high, 100% = twice the neutral-well signal

SMILES	reporter increase
CN(C)c1ccc(C(=O)NCC2(N(C)C)CCCCC2)cc1	inactive: 11.1%
COc1ccc(C(=O)NCC2(N(C)C)CCCCC2)cc1	inactive: -2.44%
Cc1cc(C(=O)NCC2(N3CCCCC3)CCCCC2)ccc1[N+](=O)[O-]	inactive: 0.541%
O=C(NCC1(N2CCCCC2)CCCCC1)c1cccc(Br)c1	inactive: -6.49%
O=C(NCC1(N2CCCCC2)CCCCC1)c1cc(F)c(F)cc1Cl	inactive: -2.06%
CN1[C@@H]2CC[C@H]1CC(OC(=O)C(O)(c1ccccc1)c1ccccc1)C2 (some centres undefined)	inactive: -3.45%
Cc1ccc(C(=O)NCC2(N3CCCCC3)CCCCC2)cc1	inactive: -8.71%
COc1cc(SC)ccc1C(=O)NCC1(N(C)C)CCCCC1	inactive: 1.28%
CC(C)N1C(=O)CC2(CCN(CCOC(=O)C(O)(c3ccccc3)c3ccccc3)CC2)C1=O	inactive: -0.972%
O=C(OC1CN2CCC1CC2)C(CO)(c1ccccc1)c1ccccc1 (centres undefined)	inactive: -3.48%
CC(C)Oc1ccc(C(=O)NCC2(N(C)C)CCCCC2)cc1	inactive: -4.62%
O=C(OCCN1CCCC1)C(O)(c1ccccc1)c1ccccc1	inactive: 4.83%
CN(C)c1cccc(C(=O)NCC2(N(C)C)CCCCC2)c1	inactive: 28.5%
C=C(C)C#CC(O)(C(=O)OC1CCN(C)CC1)c1ccccc1 (centres undefined)	inactive: 2.63%
COc1ccc(Br)c(C(=O)NCC2(N3CCCCC3)CCCCC2)c1	inactive: -8.08%
COc1cc(C(=O)NCC2(N(C)C)CCCCC2)c([N+](=O)[O-])cc1OC	inactive: 3.94%
CN(C)C1(CNC(=O)c2ccc(Br)cc2)CCCCC1	inactive: 3.63%
O=C(NCC1(N2CCCCC2)CCCCC1)c1cccc(Cl)c1	inactive: -6.1%
COc1ccc(Cl)cc1C(=O)NCC1(N(C)C)CCCCC1	inactive: 5.48%
